Patent publication US10968225B2, “Compounds and compositions for the treatment of cystic fibrosis” (Fondazione Istituto Italiano Di Tecnologia, priority 2017, dated 2021)

By UniProt entry, the sequences of proteins in these tests, tags left out. Chains listed by the source or under a name are the forms on record and can include a tag or linker. Residues count along the entry.
UniProt P13569, 1-1480 with tags or gaps DEL508-508: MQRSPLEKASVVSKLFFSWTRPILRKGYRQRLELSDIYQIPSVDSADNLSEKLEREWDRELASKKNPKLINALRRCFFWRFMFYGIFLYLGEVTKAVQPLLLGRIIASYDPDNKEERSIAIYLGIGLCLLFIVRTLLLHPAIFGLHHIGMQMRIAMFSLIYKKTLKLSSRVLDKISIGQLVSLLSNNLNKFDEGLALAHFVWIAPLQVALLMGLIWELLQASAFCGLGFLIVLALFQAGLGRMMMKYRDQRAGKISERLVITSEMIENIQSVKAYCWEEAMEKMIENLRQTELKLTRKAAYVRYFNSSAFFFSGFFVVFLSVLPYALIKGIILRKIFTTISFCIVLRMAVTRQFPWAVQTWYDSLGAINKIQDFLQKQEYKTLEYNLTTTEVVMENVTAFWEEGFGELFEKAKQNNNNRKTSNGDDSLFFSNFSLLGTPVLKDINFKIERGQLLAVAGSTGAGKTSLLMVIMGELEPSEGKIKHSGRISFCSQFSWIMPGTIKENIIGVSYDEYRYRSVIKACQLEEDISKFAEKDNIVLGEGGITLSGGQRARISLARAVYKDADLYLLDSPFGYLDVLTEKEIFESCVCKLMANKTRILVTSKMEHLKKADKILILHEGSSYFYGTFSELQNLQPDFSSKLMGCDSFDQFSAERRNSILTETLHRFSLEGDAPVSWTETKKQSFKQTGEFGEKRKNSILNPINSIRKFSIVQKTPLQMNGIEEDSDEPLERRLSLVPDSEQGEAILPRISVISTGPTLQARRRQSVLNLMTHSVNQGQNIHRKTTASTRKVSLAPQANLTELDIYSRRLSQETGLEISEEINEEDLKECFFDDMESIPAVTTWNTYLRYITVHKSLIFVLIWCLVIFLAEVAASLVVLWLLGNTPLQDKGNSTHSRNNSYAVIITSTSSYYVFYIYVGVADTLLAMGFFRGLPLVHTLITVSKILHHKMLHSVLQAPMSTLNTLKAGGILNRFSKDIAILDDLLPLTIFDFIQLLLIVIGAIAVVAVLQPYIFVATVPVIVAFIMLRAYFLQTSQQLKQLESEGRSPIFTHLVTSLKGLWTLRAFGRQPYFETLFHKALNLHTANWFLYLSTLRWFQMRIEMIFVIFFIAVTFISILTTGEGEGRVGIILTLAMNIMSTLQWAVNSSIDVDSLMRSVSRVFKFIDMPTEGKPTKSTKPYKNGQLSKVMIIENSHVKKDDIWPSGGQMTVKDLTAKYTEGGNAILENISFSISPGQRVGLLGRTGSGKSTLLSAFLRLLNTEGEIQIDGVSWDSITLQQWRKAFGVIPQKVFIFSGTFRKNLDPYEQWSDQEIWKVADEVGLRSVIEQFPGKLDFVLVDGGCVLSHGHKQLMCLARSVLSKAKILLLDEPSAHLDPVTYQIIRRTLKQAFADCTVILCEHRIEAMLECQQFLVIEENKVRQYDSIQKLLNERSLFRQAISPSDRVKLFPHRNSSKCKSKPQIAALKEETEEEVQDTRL

Biological target: mutant CFTR (Homo sapiens, UniProt P13569, DEL508-508)
Test: Fluorescence (HS-YFP) assay for CFTR activity, corrector assay
Assay type: cell-based

First: CN(C(=O)c1cccc(-n2nc(C(F)(F)F)c3c2CCN(C(=O)CC(=O)O)C3)c1)c1ccc2c(c1)OCO2
Second: COC(=O)CC(=O)N1CCc2c(c(C(F)(F)F)nn2-c2cccc(C(=O)N(C)c3ccc4c(c3)OCO4)c2)C1
The EC50 of the first is higher: greater than 2 µM for the first, 1 to 2 µM for the second. The second is the more potent here.

`CN(C(=O)c1cccc(-n2nc(C(F)(F)F)c3c2CCN(S(=O)(=O)C2CCOCC2)C3)c1)c1ccc2c(c1)OCO2` and `Cc1cnn(C)c1S(=O)(=O)N1CCc2c(c(C(F)(F)F)nn2-c2cccc(C(=O)N(C)c3ccc4c(c3)OCO4)c2)C1` cannot be ordered by EC50: less than 1 µM for the first, less than 1 µM for the second.

Compound `Cc1nn(C)c(C)c1S(=O)(=O)N1CCc2c(c(C(F)(F)F)nn2-c2cccc(C(=O)N(C)c3ccc4c(c3)OCO4)c2)C1` has an EC50 of less than 1 µM.
